The list shows a part of the results, in another mix than the full data. Calls of active or inactive are those of the source. Rule as the data show it: active = binding response below about 49% or above about 150%; inactive = in between.
molecular target: Guanine nucleotide-binding protein G(o) subunit alpha (Homo sapiens) (UniProt P09471); assay: modulators of RGS4 binding to Galphao, primary screen, biochemical, multiplexed bead flow cytometry (AID 1415); details: at 10 µM, actives lie on both sides;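 also: fluorescent Galphao activated with aluminum fluoride binding bead-coupled RGS4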

Sequences of proteins named here, by UniProt entry; tags and fusion partners are left off.
UniProt P09471, whole entry: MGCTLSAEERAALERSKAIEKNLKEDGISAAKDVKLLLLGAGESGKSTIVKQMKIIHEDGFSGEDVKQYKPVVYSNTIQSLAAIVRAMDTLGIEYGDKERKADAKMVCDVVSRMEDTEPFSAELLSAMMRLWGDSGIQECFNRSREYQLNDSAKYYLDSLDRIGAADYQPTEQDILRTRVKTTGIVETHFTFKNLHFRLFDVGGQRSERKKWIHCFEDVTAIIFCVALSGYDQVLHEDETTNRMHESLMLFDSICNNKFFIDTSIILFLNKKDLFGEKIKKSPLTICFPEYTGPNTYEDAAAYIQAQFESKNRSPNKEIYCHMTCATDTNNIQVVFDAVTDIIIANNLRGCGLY

Compound	binding response (% of control)
c1ccc(CN2CCC(Nc3ccccc3)CC2)cc1	inactive: 97.1%
N#Cc1ccc(C(=O)NCC2(N3CCCCC3)CCCCC2)cc1	inactive: 105%
N/C(=N\O)c1c(N)no[n+]1[O-]	inactive: 96.3%
O=C(OC1CN2CCC1CC2)C1c2ccccc2C=Cc2ccccc21 (centres undefined)	inactive: 101%
COc1ccc(C(=O)NCC2(N3CCOCC3)CCCCC2)cc1OC	inactive: 108%
COc1cc(OC)cc(C(=O)NCC2(N3CCOCC3)CCCCC2)c1	inactive: 98.8%
CCC(CO)(C(=O)OC1CN2CCC1CC2)c1ccccc1 (centres undefined)	inactive: 96.8%
CCCOc1ccc(C)cc1CN(CCCl)CCCl	inactive: 92.7%
CCOc1ncccc1C(=O)NCC1(N2CCOCC2)CCCCC1	inactive: 127%
CC(C)(C)OC(=O)N1CCC(Nc2ccccc2)CC1	inactive: 98.5%
CCN1CCC(Nc2cccc(F)c2)CC1	inactive: 103%
CN(C)c1ccc(C(=O)NCC2(N3CCCCC3)CCCCC2)cc1	inactive: 95.5%
Fc1ccccc1NC1CCN(Cc2ccccc2)CC1	inactive: 98.6%
Cc1ccc(OCC(C)C)c(CN(CCCl)CCCl)c1	inactive: 103%
CCOc1ccc(C)cc1CN(CCCl)CCCl	inactive: 102%
COc1ccc(NC2CCN(CCc3ccccc3)CC2)c(OC)c1	inactive: 105%
O=C(NCC1(N2CCOCC2)CCCCC1)c1cc2ccccc2o1	inactive: 118%
O=C(OC1CN2CCC1CC2)C1c2ccccc2Oc2ccccc21 (centres undefined)	inactive: 97.5%
N#CC1(Nc2ccccc2)CCN(Cc2ccccc2)CC1	inactive: 102%
CCOC(=O)N1CCC(Nc2ccc(OC)cc2)CC1	inactive: 97.9%
COc1ccc(C(=O)NCC2(N3CCCCC3)CCCCC2)c(OC)c1OC	inactive: 105%
CC(C)c1ccc(NC2CCN(C(=O)OC(C)(C)C)CC2)cc1	inactive: 102%
COc1ccc(CN(CCCl)CCCl)cc1Cl	inactive: 100%
CN(C)c1cccc(C(=O)NCC2(N3CCCCC3)CCCCC2)c1	inactive: 96.8%
O=C(NCC1(N2CCOCC2)CCCCC1)c1cc(=O)[nH]c2ccccc12	inactive: 102%
CN1CCN(CCOC(=O)C(O)(c2ccccc2)c2ccccc2)CC1	inactive: 103%
COc1ccc(NC2CCN(C(=O)OC(C)(C)C)CC2)cc1	inactive: 98.1%
N#CC1(Nc2ccccc2)CCN(CCc2ccccc2)CC1	inactive: 103%
O=C(NCC1(N2CCCCC2)CCCCC1)c1cccc([N+](=O)[O-])c1	inactive: 101%

Source: PubChem BioAssay AID1415 (NMMLSC, 2008)
